The data set relates to complex mucin. The following applies: effective diffusivity in complex mucin (CM) compared to PBS; peptide on p3 of M13 phage; FIG. 15.

For the substance ISLPSPT [SEQ ID NO: 17], the phage diffusivity entry is on record as “increased”.
